Measurements published in paper PMC11477000, “Enantioselective Binding of Proton Pump Inhibitors to Alpha1-Acid Glycoprotein and Human Serum Albumin—A Chromatographic, Spectroscopic, and In Silico Study” (International Journal of Molecular Sciences, 2024).
Where “and” joins values, the source holds several entries; their conditions need not be identical. Equal values may be shown once.

Test system: α1-acid glycoprotein (AGP)
Assay: Bound percentage by HPLC on AGP column, extrapolation to zero organic modifier
Assay type: in vitro ADME, human
Conditions: for Bound percentage (b%), average: average of IPA, EtOH, MeOH
Experimental: Chromatographic columns containing proteins can be used to determine the percentage of drug binding. A plot of the natural logarithm of the retention factors against the proportion of organic modifiers was created. […] The intercept of these linear equations can be used to calculate the bound percentage according to Equation (4) (see in Section 3.2).
Chromatographic measurements were carried out on two separate HPLC systems. The AGP binding study was performed on a Waters 2695e chromatographic system paired with a Waters 2996 PDA detector, controlled by Empower 3 FR5 (Waters Corp., Milford, MA, USA), while the HSA binding study was performed on an Agilent 1100 HPLC system, consisting of an inline degasser (G1322A), a quaternary pump (G1311A), an automatic injector (G1329A) paired with sample thermostat (G1330A), a column thermostat (G1316A), and a diode array detector (G1315A) with Agilent Chemstation B04.03-SP2 software (Agilent, Bronnwald, Germany). For the binding studies, two protein-based chiral stationary phases were utilized. The chromatographic binding study for AGP was conducted on a ChromTech Chiral-AGP column (150 mm × 4.0 mm; ChromTech Ltd., Congleton, UK), while the binding study for HSA was performed on a Daicel Chiralpak HSA column (50 mm × 4.0 mm; Daicel Corp., Osaka, Japan). The detection wavelength was 210 nm for all measurements. The stock solutions of PPIs were prepared at a concentration of 1 mg/mL in MeOH. Subsequent dilutions were prepared using water. The injected samples were mixed and diluted from the stock solutions. The final concentration for the eutomer was 0.2 mg/mL, and for the distomer, it was 0.1 mg/mL. A volume of 2 μL was injected. To mitigate the instability of PPIs in aqueous solutions, the samples were kept at a temperature of 4 °C. Cooling the samples to 4 °C prevented significant decomposition for a period of 24 h. After 24 h, new samples were prepared for injection. Chromatographic parameters were calculated based on the following equations. The retention factor (k) was calculated as:(1) k=(tr−t0)/t0 where tr is the retention time of the investigated analyte, and t0 is the dead time, determined as the first peak appearance in the chromatogram. Resolution was calculated based on the following equation:(2) Rs=2(t2−t1)/(w1+w2) where t2 and t1 are the retention times of the second and first eluted enantiomers, respectively, while w is the peak width. The separation factor (α) was calculated as follows:(3) α=k2/k1 where k1 and k2 are the retention factors of the first- and second-eluting enantiomers, respectively. The k values were also used to calculate the protein-bound percentage (b%) using Equation (4):(4) b%=k/1+k×100

[1] = extrapolation to zero percent EtOH
[2] = extrapolation to zero percent IPA
[3] = extrapolation to zero percent MeOH

## COc1ccc2nc([S@@+]([O-])Cc3ncc(C)c(OC)c3C)[nH]c2c1 [S-omeprazole, esomeprazole]
  Bound percentage (b%), average: 97.23% and 97.23 ± 2.23%
[1]
  Bound percentage (b%): 97.39%
[2]
  Bound percentage (b%): 99.38%
[3]
  Bound percentage (b%): 94.93%

## COc1ccc2[nH]c([S@+]([O-])Cc3ncc(C)c(OC)c3C)nc2c1 [R-omeprazole]
  Bound percentage (b%), average: 96.65%
[1]
  Bound percentage (b%): 96.74%
[2]
  Bound percentage (b%): 98.97%
[3]
  Bound percentage (b%): 94.25%
